## Measured affinities in a library of Ab-91 heavy chain variants

Values reported by Engelhart et al. 2022, doi:10.1038/s41597-022-01779-4 (FLAb copy).

The target is the same throughout: PDVDLGDISGINAS, from the HR2 region of SARS-CoV-2 spike.

Each scFv is VL, the linker GGGGSGGGGSGGGGS, VH, as in the parent Ab-91, and differs from it in the CDRs of the heavy chain only.
VL: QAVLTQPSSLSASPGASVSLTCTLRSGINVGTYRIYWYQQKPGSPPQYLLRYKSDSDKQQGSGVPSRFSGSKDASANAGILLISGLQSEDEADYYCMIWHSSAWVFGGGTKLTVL
VH: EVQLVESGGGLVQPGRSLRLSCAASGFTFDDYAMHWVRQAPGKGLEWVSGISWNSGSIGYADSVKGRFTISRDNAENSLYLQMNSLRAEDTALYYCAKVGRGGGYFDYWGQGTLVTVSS

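Phage display of a naive human antibody library on the peptide gave the parent. Library AAYL51 holds single substitutions and randomly drawn double and triple substitutions in the CDRs. The assay is AlphaSeq: two haploid yeast populations carry antibody and antigen on their surface. After mating in shaken culture at 30 °C for 16 h, diploids were selected and their barcode pairs sequenced. Read counts were normalised to the haploid input and turned into Kd by a linear fit to BCL2-family pairs of known affinity, for each replicate. The assay was run in three technical replicates.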

Positions count from residue 1 of the parent VH; F27A puts A in place of F.
Affinities are written as log10 Kd with Kd in nM; a lower number is a better binder.
Replicates are averaged; those with no signal do not enter the mean.
"nd" marks a missing value. The strain was present, yet no cells mated with the target were sequenced in that replicate, which points to weak or no binding.

changes,log10 Kd (nM) by replicate,"mean, log10 nM",control signals
F27A G50R G56I,nd nd nd,nd,3/9 (1.48)
I51S G100I Y105L,nd nd nd,nd,0/9
G26E M34P I51L,nd nd nd,nd,0/9
H35V N54R Y108M,nd 4.00 nd,4.00,0/9
T28L A33L K65P,nd nd nd,nd,0/9
A33V G59M R101K,4.49 4.38 nd,4.43,8/9 (4.57)
G50E F106I Y108M,nd nd nd,nd,0/9
Y32P I58D G59A,3.69 4.68 3.67,4.01,2/9 (4.53)
V64C D107F,4.60 nd nd,4.60,1/9 (3.42)
D30S G100H Y105T,nd nd nd,nd,0/9
G56Q D62G V99L,3.09 2.97 2.83,2.97,2/9 (4.62)
N54F S63Y F106A,nd nd nd,nd,1/9 (4.68)
G50W S57R,nd nd 5.09,5.09,3/9 (4.18)
A33Q S52K Y108L,4.13 nd nd,4.13,5/9 (4.65)
I51Q S52R,nd nd nd,nd,1/9 (5.50)
N54V D62Q G103D,4.96 nd 3.05,4.00,1/9 (5.33)
S57T Y60C F106A,nd nd nd,nd,2/9 (3.77)
A61H G103T,1.84 2.33 2.03,2.07,1/9 (4.77)
D31Q V64P G102E,nd nd nd,nd,1/9 (3.43)
T28N V64Q,3.03 3.35 3.09,3.16,3/9 (5.10)
H35Q Y105G D107S,nd nd nd,nd,1/9 (3.60)
S55W K65M,4.33 5.21 5.98,5.18,4/9 (5.03)
F27T T28Y D31M,2.31 2.72 2.48,2.50,4/9 (4.86)
F29E D31H A61D,4.62 nd nd,4.62,2/9 (4.35)
G26F V99I F106E,4.75 3.25 3.41,3.80,2/9 (4.67)
Y105W D107M,2.65 2.60 2.65,2.63,7/9 (4.73)
N54Y A61Q S63P,nd nd nd,nd,1/9 (2.87)
Y32N N54K R101Q,nd nd nd,nd,0/9
G26R I51T G56I,nd nd nd,nd,0/9
V99M,3.55 nd nd,3.55,1/9 (2.92)
D30G N54G K65I,0.92 0.77 0.31,0.67,1/9 (4.28)
G59D G100S G104D,4.86 6.46 5.42,5.58,3/9 (5.09)
D31W Y32V V99S,6.25 nd nd,6.25,1/9 (4.42)
I58C G104Q Y105T,2.47 2.44 2.21,2.37,5/9 (4.97)
D31P I51T Y108A,4.83 3.95 nd,4.39,3/9 (4.80)
G56W G104H D107E,3.96 4.51 nd,4.24,2/9 (4.05)
G104Q F106A,3.47 nd 3.51,3.49,2/9 (3.43)
F27C G50A D107F,nd 4.46 nd,4.46,2/9 (4.83)
T28G F29M W53K,nd nd nd,nd,1/9 (4.86)
Y32W S52P G59Y,nd 5.21 nd,5.21,1/9 (4.13)
D30H Y32N I58A,1.24 1.25 0.68,1.06,5/9 (4.56)
G56S I58H F106M,6.43 5.65 nd,6.04,8/9 (5.11)
F27K S63Q,nd nd nd,nd,1/9 (4.07)
H35L N54M G104M,3.96 3.84 nd,3.90,4/9 (4.42)

As a blank, each scFv also met three strains without target: over library AAYL51, 21% of these pairings were detected, typically at 4.54 and seldom below 3.26. The control count says in how many pairings with the empty strains this scFv gave a signal, with their mean in brackets.
In this assay the parent's reference entry averaged 1.86; its copy inside this library read 0.88.